Laboratory results from PubChem BioAssay (Tox21).
The list shows a part of the results, in another mix than the full data. Results filed as inconclusive are left out. Active and inactive are the calls of the source. Calls come from the whole dose curve; as a rule, active = well fitted cell-killing curve with a large enough effect in the repeat runs; inconclusive = weak or mixed curves, or effect the other way; inactive = flat fitted curve, though single readings scatter.

Assay: qHTS RealTime-Glo MT Cell Viability Assay in HEK293 cells - 32 hour (AID 1224868); note: nearly all actives have a fitted effect of over 50% in size; for activity change, negative = cytotoxic: top concentration of the series differs between compounds
Conditions: RealTime-Glo luminescence; series mostly up to 76.8 µM; activity change, negative = cytotoxic: at the top concentration
Source text: National Center for Advancing Translational Sciences [NCATS]
NIH Chemical Genomics Center [NCGC]
U.S. Environmental Protection Agency [EPA]
National Institutes of Environmental Health Sciences [NIEHS]
National Toxicology Program [NTP]
U.S. Food and Drug Administration [FDA]
Measure of cell viability is critical in the cell-base assay. Analysis of cell viability is necessary for the characterization of cell responses to cytotoxic drugs and environmental stress. A RealTime-Glo MT Cell Viability Assay to monitor cell viability in real time of continues cell culture during 40 hours of compound treatment was used to screen Tox21 10K library compounds in Hek293 cells. The RealTime-Glo MT Cell Viability Assay is a nonlytic, homogeneous, bioluminescent method to measure cell viability in real time using a simple, plate-based method. The assay involves adding NanoLuc luciferase and a cell-permeant prosubstrate to cells in culture. Viable cells reduce the proprietary prosubstrate to generate a substrate for NanoLuc luciferase. This substrate diffuses from cells into the surrounding culture medium, where it is rapidly used by the NanoLuc Enzyme to produce a luminescent signal. The signal correlates with the number of viable cells, making the assay well suited for cytotoxicity studies.
Tox21 Assay Protocol Summary:
The mixture of Hek293 cell suspension and reagents were dispensed at 600cells/6 ul/well in 1536-well tissue culture treated black solid bottom plates using a Multidrop dispenser. After the assay plates were incubated at a 37 C/5% CO2 incubator for 5 hours, 23 nL of compounds dissolved in DMSO, positive and negative controls was transferred to the assay plate by a pintool work station. The plates were incubated at 37 C for 40 hours. The luminescence intensity were measured at 0h, 8h, 16h, 24h, 32h and 40h time points using ViewLux plate reader during compound treatment.
% is set by controls: 0 for no effect and ±100 for the full control effect; potency is the fitted concentration of half-maximal effect.

Row | SMILES | activity change, negative = cytotoxic | Potency
1 | ClP(Cl)c1ccccc1 | inactive: 12.8% | 
2 | O=C(Cl)OCCOC(=O)Cl | inactive: -18.5% | 
3 | CCCCCCCCCCCCCC[P+](CCCCCC)(CCCCCC)CCCCCC |  | active: 3.08 µM
4 | COC(=O)Cl | inactive: -1.12% | 
5 | Cc1cc([N+](=O)[O-])c(O)c([N+](=O)[O-])c1 | inactive: -29.4% | 
6 | O=[P+](Oc1ccccc1)Oc1ccccc1 | inactive: 10.5% | 
7 | CCNC(C)Cc1ccc2c(c1)OCO2 (stereo not given) | inactive: -15.7% | 
8 | CN(C(=O)Cc1ccccc1)[C@H]1CC[C@@]2(CCCO2)C[C@@H]1N1CCCC1 | inactive: -1.77% [at 35.3 µM] | 
9 | O=[N+]([O-])c1ccc([N+](=O)[O-])cc1 | inactive: -22.1% | 
10 | CCCCC(CC)CO[P+](=O)OCC(CC)CCCC (stereo not given) | inactive: -7.74% | 
11 | CC(C)CCCCCCCOP(OCCCCCCCC(C)C)Oc1ccccc1 | inactive: -17.9% | 
12 | CCOP(=S)(CC)Sc1ccccc1 (stereo not given) | inactive: -0.9% | 
13 | O=P(Cl)(Cl)c1ccccc1 | inactive: 5.24% | 
14 | O=C(Cl)Oc1ccccc1 | inactive: 14.8% | 
15 | CCCCO[P+](=O)OCCCC |  | inactive
16 | CN(C(=O)Cc1cccc2occc12)[C@H]1CC[C@@]2(CCCO2)C[C@@H]1N1CCCC1 | inactive: 8.89% | 
17 | CCC(C)(OOC(C)(C)C)OOC(C)(C)C | inactive: 10.8% [at 15.8 µM] | 
18 | CCOC(=O)Cl | inactive: 17.4% | 
19 | NC(=O)Nc1ccc([As](=O)(O)O)cc1 |  | inactive
20 | CCCCOP(OCCCC)OCCCC | inactive: -1.18% | 
21 | COP(=S)(Cl)OC | inactive: -12.5% | 
22 | O=[p+]1oc2ccccc2c2ccccc21 (stereo not given) | inactive: 7.48% | 
23 | O=[N+]([O-])c1ccc(S(=O)(=O)O)c([N+](=O)[O-])c1 | inactive: 11.6% | 
24 | CN(C(=O)Cc1ccc(Cl)c(Cl)c1)[C@H]1CC[C@@]2(CCCO2)C[C@@H]1N1CCCC1 | inactive: -20.5% [at 35.3 µM] | 
25 | O=P(Cl)(Oc1ccccc1)Oc1ccccc1 | inactive: -23.3% | 
